{"source": "patent US20100286082A1", "about": "“RIBOSWITCHES AND METHODS AND COMPOSITIONS FOR USE OF AND WITH RIBOSWITCHES” (Yale University, priority 2007, published 2010)", "system": "17-90 RNA mutant U41", "test": "In-line probing of mutant (U41) 17-90 RNA", "assay_type": "binding, Streptococcus pneumoniae R6", "settings": "compared with wild type"}
{"compound": "Nc1nc2nc[nH]c2c(=O)[nH]1", "note": "[guanine]", "values": [{"measurement": "binding by the U41 mutant", "value": "no longer detectable"}]}
